Key:
[1] = test system: HEK293 cells; type: cell-based; conditions: HEK293, 72 hours, MTT; IC50 of modified compound compared to its corresponding cytotoxic compound; approximate multiples
Description: Toxicity detection method: a standard universal test program was used to perform the in vitro cytotoxicity test. 2500 HEK293 cells were cultured in a 96-well plate, and allowed to grow overnight. Cytotoxic compounds and their corresponding conjugated compounds were added into each well in different concentrations, cultivated with the cells at 37° C. for 72 hours, and then treated with MTT reagents. OD changes were read. The approximate multiples of the toxicity change were obtained by comparing the IC50 of the modified compounds to their corresponding cytotoxic compounds.

[2] = target: T1, asparagine endopeptidase (Homo sapiens, UniProt Q99538); conditions: S1-S6, 1 mg/ml; 10 μg/ml acidified asparagine endopeptidase; 37°
T1 sequence (Q99538 26-323 limits assumed): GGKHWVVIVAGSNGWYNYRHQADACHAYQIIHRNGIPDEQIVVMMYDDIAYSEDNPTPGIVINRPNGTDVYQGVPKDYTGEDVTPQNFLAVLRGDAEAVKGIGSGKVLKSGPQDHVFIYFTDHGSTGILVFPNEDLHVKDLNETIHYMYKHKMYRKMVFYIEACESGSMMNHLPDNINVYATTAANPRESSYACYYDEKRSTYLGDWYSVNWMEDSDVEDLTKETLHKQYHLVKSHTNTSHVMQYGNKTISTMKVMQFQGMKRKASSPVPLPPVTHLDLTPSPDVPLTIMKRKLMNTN
Description: Reduction of reactant and increase of product were detected by HPLC, thereby comparing the activation efficiency of these compounds.
(§1) When R1 is 2-(2-Methoxyethoxy)Acetyl, and R3 is Ala, activation study and efficacy study were carried out by using compounds having different cleavable linker. The study methods are identical to those in Examples 10, 11 and 12. The in vitro activation efficiency was tested by asparagine endopeptidase and the tumor inhibition rate was tested by using human breast cancer MDA-MB231 model.

[3] = test system: Human breast cancer MDA-MB231 cells; type: in vivo, nude mice
Description: 1) Human breast cancer MDA-MB231 cells were purchased from American type culture collection (ATCC) and identified according the specification provided by ATCC. Cells were cultivated in […] (DMEM culture medium) containing 10% fetal bovine serum at 37° C. and 5% CO2. The cells were passaged for every three days and cells within the 15th passage were used.
2) Production of tumor. 5×10^6 MDA-MB231 cells were subcutaneously injected to the back of the nude mice. Mice were randomly grouped after the tumor reached at least 100 mm^3. Then treatment began and the day on which the treatment began was day 1.
3) Course of treatment. […] The drugs were administered once weekly for four weeks.
as §1, with “model. […]” for “model.”

[4] = test system: Human prostate cancer PC-3 tumor tissue homogenate; type: biochemical; conditions: Human prostate cancer PC-3 tumor tissue homogenate (30 μg/ml); 1 mg/ml compound
Description: (§2) At 37 °C, sample compounds were added into 100 μg acidized tumor tissue homogenates (pH6.0) in a concentration of 1 mg/ml.
(§3) […], sample compounds were added into 100 μg acidized tumor tissue homogenates (pH6.0) in a concentration of 1 mg/ml.
(§4) At 37 °C, sample compounds were added into 100 μg acidized tumor tissue homogenates in a concentration of 1 mg/ml.
(§5) In the experiments, at 37 °C, compounds were added into proteases in 100 μg acidized tumor tissue homogenates in a concentration of 1 mg/ml. […] Meanwhile certain compounds produced in the screening were compared and their activation efficiency in same tissue was analyzed.
(§6) At 37° C., compounds were added into proteases in 100 μg acidized tumor tissue homogenates in a concentration of 1 mg/ml.

[5] = test system: tumor tissue homogenates; type: biochemical
Description: as §2, §3, §4, §5, §6

[6] = test system: Human renal cancer OS-RC-2 tumor tissue homogenate; type: biochemical; conditions: Human renal cancer OS-RC-2 tumor tissue homogenate (30 μg/ml); 1 mg/ml compound
Description: as §2, §3, §4, §5, §6

[7] = test system: Human non-small cell lung cancer A549 tumor tissue homogenate; type: biochemical; conditions: Human non-small cell lung cancer A549 tumor tissue homogenate (30 μg/ml); 1 mg/ml compound
Description: as §2, §3, §4, §5, §6

[8] = test system: Human pancreatic cancer Panc-1 tumor tissue homogenate; type: biochemical; conditions: Human pancreatic cancer Panc-1 tumor tissue homogenate (30 μg/ml); 1 mg/ml compound
Description: as §2, §3, §4, §5, §6

[9] = test system: Human fibrosarcoma HT-1080 tumor tissue homogenate; type: biochemical; conditions: Human fibrosarcoma HT-1080 tumor tissue homogenate (30 μg/ml); 1 mg/ml compound
Description: as §2, §3, §4, §5, §6

[10] = test system: Human liver cancer Hepg2 tumor tissue homogenate; type: biochemical; conditions: Human liver cancer Hepg2 tumor tissue homogenate (30 μg/ml); 1 mg/ml compound
Description: as §2, §3, §4, §5, §6

[11] = test system: Human colon cancer HT-29 tumor tissue homogenate; type: biochemical; conditions: Human colon cancer HT-29 tumor tissue homogenate (30 μg/ml); 1 mg/ml compound
Description: as §2, §3, §4, §5, §6

[12] = test system: Human chronic leukemia K562 tumor tissue homogenate; type: biochemical; conditions: Human chronic leukemia K562 tumor tissue homogenate (30 μg/ml); 1 mg/ml compound
Description: as §2, §3, §4, §5, §6

[13] = test system: Human ovarian cancer SK-OV-3 tumor tissue homogenate; type: biochemical; conditions: Human ovarian cancer SK-OV-3 tumor tissue homogenate (30 μg/ml); 1 mg/ml compound
Description: as §2, §3, §4, §5, §6

[14] = MDA-MB231, nude mice, IV 13.2 μmol/kg once weekly for four weeks, Day 10
[15] = MDA-MB231, nude mice, IV 13.2 μmol/kg once weekly for four weeks, Day 24

4-N—(N—(N—(N-(2-(2-methoxyethoxy) acetyl-L-alanyl)-L-alanyl)-L-asparaginyl)-amino benzyl alcohol-camptothecin-carbonic acid diester [Compound S2]
Cytoxicity reduced (Multiple) [1]: 145 Multiple
Activation Efficiencies (%) [2]: 87.5%
Inhibitory rate on tumor (%) Day 10 [3, 14]: 81%
Size of Tumor (mm^3) Day 10 [3, 14]: 59.35 ± 35.53 mm^3
Inhibitory rate on tumor (%) Day 24 [3, 15]: 91%
Size of Tumor (mm^3) Day 24 [3, 15]: 89.53 ± 65.45 mm^3
Effect on tumor growth, in words ([3]; compared to control, camptothecin, capecitabine and daunorubicin groups): strong inhibitory effect on tumor growth
Activation Efficiencies (%) [4]: 75.4%
Activation efficiency by tumor tissue, in words [5]: very high activation efficiency
Activation Efficiencies (%) [6]: 53.6%
Activation Efficiencies (%) [7]: 68.3%
Activation Efficiencies (%) [8]: 68.4%
Activation Efficiencies (%) [9]: 75.6%
Activation Efficiencies (%) [10]: 63.7%
Activation Efficiencies (%) [11]: 78.3%
Activation Efficiencies (%) [12]: 63.7%
Activation Efficiencies (%) [13]: 74.6%

From patent US10682371B2, “Small molecule conjugates specifically activated in tumor microenvironment for targeting and use thereof” (priority 2014, dated 2020)
